# Literature values as cited in patent US9061070B2, “Treating stroke and other diseases without inhibiting N-type calcium channels” (NoNO, Inc., priority 2007, dated 2015).
# Conditions: cited from earlier work
structure (smiles),measurement,value
CCC(=O)N(c1ccccc1)C1(C(=O)OC)CCN(CCC(=O)OC)CC1,halflife,3.5 min

# Some compounds may have been tested in ways that are not shown here.
